Experimental findings from publication PMC12903857 (Journal of the American Chemical Society, 2026) are described below.

The test has as its target T1, 14-3-3σ, tagged with a Twin-Strep tag (UniProt P31947 1-248).
T1 sequence (looked up): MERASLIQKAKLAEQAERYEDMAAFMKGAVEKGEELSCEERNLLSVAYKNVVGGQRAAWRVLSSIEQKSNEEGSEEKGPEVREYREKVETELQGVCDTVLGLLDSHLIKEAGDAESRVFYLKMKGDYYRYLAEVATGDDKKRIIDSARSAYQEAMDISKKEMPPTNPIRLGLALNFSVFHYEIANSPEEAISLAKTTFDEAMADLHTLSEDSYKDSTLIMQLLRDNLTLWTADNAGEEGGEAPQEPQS
Description: SPR; 14-3-3σ with Twin-Strep tag immobilized on a Strep-Tactin XT-coated chip; 2-fold dilution series of acetylated 12-mer peptides starting at 50 μM; kinetic- and affinity-based fitting. The settings on record: both partners purified. (In general: Surface plasmon resonance follows binding to a sensor surface in real time, without labels.)

As a reminder, the Kd is the equilibrium constant for the complex coming apart.

QRSTSTPNVHMV (acetylated; phosphoserine at 259) [acetylated 12-mer C-RAF peptide]: the Kd turned out to be 2600 nM.
